Experimental data taken from ChEMBL document CHEMBL1151531, “Taxol structure-activity relationships: synthesis and biological evaluation of taxol analogs modified at C-7” (Bioorg Med Chem Lett, 1994).

Sequences of proteins named here, by UniProt entry; tags and fusion partners are left off.
UniProt P02550, whole entry, looked up: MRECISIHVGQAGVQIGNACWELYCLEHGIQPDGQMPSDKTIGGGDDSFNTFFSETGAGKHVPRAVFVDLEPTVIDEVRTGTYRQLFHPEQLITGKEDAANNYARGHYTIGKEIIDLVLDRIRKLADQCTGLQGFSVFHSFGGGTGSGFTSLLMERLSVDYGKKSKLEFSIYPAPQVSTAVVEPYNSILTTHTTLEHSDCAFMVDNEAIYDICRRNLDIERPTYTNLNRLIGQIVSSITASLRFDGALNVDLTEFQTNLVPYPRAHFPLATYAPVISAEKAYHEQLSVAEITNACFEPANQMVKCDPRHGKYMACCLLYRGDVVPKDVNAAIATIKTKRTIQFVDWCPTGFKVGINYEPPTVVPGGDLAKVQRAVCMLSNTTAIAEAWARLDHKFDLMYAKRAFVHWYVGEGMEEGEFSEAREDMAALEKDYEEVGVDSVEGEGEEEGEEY

Biological target: Tubulin alpha chain (Sus scrofa) (UniProt P02550)
Test: Initial tubulin polymerization rate relative to taxol.
Format: functional

Initial rate ratio	Compound
0.45	CC(=O)O[C@H]1C(=O)[C@@]2(C)C([C@H](OC(=O)c3ccccc3)[C@]3(O)C[C@H](OC(=O)[C@H](O)[C@@H](NC(=O)c4ccccc4)c4ccccc4)C(C)=C1C3(C)C)[C@]1(OC(C)=O)CO[C@@H]1C[C@H]2O (some centres not stated)
1	CC(=O)O[C@H]1C(=O)[C@@]2(C)[C@H]([C@H](OC(=O)c3ccccc3)[C@]3(O)C[C@H](OC(=O)[C@H](O)[C@@H](NC(=O)c4ccccc4)c4ccccc4)C(C)=C1C3(C)C)[C@]1(OC(C)=O)CO[C@@H]1C[C@@H]2O [PACLITAXEL]
